Here are results for two compounds from PubChem BioAssay (EPA / NIEHS).

Protein sequences, listed by entry. Tags and fused reporters are not part of them. Lines headed by an entry give the natural chain unless they say otherwise; changes in a name come on top.
UniProt P17706: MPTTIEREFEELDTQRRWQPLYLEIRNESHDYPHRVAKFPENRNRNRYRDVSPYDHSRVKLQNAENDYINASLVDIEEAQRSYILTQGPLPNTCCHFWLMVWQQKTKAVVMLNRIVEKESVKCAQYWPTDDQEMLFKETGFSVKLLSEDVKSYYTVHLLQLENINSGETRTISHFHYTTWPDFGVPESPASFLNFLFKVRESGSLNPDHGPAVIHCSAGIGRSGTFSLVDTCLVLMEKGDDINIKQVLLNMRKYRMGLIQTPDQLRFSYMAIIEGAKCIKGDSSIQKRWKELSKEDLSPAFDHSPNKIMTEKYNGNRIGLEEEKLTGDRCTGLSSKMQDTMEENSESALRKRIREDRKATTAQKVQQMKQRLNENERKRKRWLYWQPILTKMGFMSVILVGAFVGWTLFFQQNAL
UniProt Q9NTG7: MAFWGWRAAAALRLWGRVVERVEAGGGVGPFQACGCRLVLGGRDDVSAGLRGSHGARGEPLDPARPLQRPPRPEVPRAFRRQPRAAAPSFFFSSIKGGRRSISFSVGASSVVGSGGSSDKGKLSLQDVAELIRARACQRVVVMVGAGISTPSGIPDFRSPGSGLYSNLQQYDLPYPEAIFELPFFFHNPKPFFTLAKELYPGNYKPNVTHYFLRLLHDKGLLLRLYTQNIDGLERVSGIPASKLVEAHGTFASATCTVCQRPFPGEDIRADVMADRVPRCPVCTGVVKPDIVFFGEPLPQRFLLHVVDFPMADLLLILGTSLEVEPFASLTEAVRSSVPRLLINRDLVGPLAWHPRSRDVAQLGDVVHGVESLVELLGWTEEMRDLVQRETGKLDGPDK
UniProt P60484: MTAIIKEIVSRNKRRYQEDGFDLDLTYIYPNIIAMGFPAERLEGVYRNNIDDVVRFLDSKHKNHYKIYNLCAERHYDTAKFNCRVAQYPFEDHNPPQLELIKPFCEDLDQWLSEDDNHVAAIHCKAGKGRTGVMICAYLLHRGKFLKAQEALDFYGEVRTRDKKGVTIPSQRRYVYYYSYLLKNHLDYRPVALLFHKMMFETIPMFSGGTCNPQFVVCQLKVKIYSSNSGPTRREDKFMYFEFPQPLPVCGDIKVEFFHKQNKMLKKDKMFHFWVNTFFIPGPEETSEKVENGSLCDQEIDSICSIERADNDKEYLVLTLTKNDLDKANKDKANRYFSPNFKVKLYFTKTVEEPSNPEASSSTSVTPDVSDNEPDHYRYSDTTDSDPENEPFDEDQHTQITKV
UniProt Q05209: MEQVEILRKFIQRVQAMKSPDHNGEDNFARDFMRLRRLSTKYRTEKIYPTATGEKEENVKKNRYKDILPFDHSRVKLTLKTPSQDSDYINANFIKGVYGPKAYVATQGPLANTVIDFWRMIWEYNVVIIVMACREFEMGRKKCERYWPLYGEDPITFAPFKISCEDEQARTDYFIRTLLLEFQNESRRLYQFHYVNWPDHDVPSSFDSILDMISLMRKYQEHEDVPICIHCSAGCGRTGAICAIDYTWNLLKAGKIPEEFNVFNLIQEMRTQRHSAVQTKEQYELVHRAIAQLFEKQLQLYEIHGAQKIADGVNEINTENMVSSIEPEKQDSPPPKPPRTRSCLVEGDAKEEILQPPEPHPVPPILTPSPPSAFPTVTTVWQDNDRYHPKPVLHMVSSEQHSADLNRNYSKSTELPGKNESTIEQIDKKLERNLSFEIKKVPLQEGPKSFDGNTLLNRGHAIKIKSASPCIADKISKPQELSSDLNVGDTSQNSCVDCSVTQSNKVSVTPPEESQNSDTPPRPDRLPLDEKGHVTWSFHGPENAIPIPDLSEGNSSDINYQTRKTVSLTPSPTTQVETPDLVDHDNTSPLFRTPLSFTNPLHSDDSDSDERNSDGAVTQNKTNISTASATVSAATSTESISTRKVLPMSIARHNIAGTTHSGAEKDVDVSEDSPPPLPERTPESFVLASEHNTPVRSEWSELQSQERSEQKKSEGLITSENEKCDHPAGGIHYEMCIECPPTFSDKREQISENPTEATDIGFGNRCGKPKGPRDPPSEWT
UniProt Q12923: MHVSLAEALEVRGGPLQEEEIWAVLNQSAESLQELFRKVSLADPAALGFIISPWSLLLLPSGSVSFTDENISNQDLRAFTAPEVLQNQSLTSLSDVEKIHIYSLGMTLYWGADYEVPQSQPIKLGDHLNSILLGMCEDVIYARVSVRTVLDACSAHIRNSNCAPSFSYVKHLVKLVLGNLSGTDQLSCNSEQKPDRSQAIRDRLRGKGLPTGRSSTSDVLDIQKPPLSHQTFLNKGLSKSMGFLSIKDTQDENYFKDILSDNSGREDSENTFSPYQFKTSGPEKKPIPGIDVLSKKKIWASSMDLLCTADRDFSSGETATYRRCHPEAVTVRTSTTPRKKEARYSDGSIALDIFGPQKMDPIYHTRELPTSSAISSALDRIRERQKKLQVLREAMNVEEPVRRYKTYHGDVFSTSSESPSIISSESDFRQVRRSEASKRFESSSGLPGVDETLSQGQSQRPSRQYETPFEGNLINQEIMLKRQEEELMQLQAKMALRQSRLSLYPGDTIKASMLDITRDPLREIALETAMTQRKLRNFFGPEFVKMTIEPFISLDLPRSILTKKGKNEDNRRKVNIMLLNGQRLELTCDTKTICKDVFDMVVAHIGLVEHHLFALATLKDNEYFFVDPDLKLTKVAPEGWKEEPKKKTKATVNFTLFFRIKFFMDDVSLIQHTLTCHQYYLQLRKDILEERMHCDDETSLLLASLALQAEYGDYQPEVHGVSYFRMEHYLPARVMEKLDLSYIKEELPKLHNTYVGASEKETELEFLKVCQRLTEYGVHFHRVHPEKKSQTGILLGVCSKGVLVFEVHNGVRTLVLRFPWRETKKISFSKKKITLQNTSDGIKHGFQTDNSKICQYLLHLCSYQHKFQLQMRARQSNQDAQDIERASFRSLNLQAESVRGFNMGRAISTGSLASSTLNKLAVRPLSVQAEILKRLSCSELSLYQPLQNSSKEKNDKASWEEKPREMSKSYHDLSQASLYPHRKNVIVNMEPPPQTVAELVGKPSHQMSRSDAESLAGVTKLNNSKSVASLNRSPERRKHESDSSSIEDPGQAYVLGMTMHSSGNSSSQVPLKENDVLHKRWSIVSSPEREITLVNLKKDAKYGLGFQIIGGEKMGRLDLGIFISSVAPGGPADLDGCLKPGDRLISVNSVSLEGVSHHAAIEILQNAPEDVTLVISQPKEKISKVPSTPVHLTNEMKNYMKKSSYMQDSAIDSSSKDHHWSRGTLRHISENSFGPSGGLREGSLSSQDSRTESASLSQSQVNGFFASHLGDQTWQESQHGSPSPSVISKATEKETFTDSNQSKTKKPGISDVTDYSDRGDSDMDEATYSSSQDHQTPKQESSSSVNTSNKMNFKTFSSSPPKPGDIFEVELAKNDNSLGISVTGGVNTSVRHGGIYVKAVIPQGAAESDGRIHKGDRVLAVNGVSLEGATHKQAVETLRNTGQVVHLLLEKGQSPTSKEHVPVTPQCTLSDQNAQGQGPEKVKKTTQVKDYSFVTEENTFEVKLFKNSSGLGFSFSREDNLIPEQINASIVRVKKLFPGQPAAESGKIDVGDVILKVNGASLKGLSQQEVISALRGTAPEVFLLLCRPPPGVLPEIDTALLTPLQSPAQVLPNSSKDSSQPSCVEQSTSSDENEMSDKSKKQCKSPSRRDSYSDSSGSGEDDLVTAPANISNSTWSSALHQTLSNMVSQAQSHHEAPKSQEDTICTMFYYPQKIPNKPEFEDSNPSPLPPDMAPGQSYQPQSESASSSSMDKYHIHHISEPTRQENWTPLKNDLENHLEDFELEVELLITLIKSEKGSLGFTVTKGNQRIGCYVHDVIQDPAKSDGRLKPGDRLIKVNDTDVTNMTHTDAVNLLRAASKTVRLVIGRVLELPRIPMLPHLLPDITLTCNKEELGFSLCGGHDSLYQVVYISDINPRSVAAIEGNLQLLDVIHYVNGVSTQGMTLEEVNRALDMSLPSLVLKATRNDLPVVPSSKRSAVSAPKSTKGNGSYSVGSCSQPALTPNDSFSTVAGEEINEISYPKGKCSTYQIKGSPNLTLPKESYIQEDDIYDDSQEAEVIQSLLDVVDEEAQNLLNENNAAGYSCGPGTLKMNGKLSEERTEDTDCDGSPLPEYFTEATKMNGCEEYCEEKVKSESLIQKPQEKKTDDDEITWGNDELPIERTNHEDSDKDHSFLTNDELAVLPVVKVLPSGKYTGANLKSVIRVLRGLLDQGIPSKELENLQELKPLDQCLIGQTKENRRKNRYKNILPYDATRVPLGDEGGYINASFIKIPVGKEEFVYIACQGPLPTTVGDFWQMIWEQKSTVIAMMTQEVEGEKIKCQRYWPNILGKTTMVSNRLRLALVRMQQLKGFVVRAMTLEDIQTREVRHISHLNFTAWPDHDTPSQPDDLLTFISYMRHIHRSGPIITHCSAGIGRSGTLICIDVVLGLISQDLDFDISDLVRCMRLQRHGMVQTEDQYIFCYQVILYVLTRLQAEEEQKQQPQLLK
UniProt P43378: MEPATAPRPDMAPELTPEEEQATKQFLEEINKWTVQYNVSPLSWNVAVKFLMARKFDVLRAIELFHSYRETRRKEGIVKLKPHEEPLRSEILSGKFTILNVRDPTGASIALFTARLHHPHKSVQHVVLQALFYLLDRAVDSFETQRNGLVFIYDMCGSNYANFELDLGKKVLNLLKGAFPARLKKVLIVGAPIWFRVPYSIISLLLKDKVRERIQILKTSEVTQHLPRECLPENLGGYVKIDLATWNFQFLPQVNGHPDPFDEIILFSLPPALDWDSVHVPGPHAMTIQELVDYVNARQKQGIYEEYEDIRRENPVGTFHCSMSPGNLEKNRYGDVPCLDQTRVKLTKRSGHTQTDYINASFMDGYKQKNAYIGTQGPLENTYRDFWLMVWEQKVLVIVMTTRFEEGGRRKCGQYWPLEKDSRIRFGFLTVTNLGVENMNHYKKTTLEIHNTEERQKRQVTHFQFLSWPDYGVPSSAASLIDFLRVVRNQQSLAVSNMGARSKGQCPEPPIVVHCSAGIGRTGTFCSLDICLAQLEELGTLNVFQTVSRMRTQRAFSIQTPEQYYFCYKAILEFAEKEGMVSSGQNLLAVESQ
UniProt P28827, whole entry, looked up: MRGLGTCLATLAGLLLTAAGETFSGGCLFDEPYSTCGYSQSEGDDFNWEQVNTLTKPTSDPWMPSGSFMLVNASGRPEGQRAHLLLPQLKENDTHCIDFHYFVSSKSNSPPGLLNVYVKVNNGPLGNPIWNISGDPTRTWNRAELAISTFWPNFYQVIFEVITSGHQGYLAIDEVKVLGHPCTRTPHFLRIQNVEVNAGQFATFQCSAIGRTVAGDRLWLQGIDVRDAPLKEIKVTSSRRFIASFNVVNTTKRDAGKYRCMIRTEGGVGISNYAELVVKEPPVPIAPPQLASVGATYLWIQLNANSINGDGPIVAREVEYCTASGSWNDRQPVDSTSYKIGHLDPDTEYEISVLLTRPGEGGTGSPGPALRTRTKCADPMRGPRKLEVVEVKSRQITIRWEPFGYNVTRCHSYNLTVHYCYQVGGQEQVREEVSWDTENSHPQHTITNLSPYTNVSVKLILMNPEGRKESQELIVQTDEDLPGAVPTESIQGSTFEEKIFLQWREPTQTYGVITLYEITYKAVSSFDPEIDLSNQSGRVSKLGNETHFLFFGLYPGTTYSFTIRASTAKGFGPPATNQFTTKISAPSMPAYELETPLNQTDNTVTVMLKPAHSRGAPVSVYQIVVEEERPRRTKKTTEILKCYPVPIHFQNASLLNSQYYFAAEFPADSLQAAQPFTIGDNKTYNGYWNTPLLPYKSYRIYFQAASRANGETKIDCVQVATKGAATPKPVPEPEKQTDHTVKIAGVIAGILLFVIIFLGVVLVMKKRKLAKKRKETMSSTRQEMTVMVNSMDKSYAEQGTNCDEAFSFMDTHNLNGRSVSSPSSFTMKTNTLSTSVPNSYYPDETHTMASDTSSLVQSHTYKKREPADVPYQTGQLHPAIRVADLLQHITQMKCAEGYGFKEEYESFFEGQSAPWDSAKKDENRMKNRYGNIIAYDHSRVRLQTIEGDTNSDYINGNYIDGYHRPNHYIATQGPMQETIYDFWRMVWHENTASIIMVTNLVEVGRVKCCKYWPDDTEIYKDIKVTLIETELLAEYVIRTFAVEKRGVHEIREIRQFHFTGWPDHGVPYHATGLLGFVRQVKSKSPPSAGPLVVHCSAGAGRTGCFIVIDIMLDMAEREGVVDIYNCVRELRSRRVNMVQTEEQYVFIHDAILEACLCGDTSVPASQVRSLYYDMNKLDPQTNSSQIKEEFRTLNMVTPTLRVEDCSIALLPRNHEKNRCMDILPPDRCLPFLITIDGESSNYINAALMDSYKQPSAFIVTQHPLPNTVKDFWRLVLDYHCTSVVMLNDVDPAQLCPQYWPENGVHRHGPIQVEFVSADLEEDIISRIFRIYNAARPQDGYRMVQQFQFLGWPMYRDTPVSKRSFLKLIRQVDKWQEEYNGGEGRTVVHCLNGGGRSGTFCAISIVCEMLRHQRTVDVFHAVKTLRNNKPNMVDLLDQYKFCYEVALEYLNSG

Only a part is listed here, and it is no random draw. Results filed as inconclusive are left out. Some compounds were tested as several samples or in several runs, with calls that do not always agree. The source made the active and inactive calls. Rule for the calls: active = hit-call score of the fitted dose curve at least 0.9, where 1 is the maximum; inconclusive = response in the unintended direction; inactive = score below 0.9.

The target of assay [1] is human Protein Tyrosine Phosphatase Non-receptor Type 2 (PTPN2), PTPN2 (gene 5771) (UniProt P17706). Description: NVS_ENZ_hPTPN2: NovaScreen (NVS) Enzymatic Assay for human Protein Tyrosine Phosphatase Non-receptor Type 2 (PTPN2) (AID 2283207). The procedure, abridged:
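Cell-free recombinant enzyme with fluorescent substrate, product separated by electrophoretic mobility shift; read 1 h after dosing. Primary screen single concentration (25 uM) in duplicate; actives followed in concentration series; loss of signal versus DMSO.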

Assay [2] has as its target human Sirtuin 3 (SIRT3), SIRT3 (gene 23410) (UniProt Q9NTG7). Description: NVS_ENZ_hSIRT3: NovaScreen (NVS) Enzymatic Assay for human Sirtuin 3 (SIRT3) (AID 2283222). The procedure, abridged: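 Cell-free enzyme assay with recombinant protein and fluorescent substrate, product separated by electrophoretic mobility shift; read 1 hour after dosing. Screened in duplicate at 25 uM, then singleton concentration-response up to 50 uM; loss of signal versus DMSO.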

The target in assay [3] is human Tyrosine Protein Kinase Receptor Tie-2 (Tie2), TEK (gene 7010) (UniProt Q02763). In words: NVS_ENZ_hTie2: NovaScreen (NVS) Enzymatic Assay for human Tyrosine Protein Kinase Receptor Tie-2 (Tie2) (AID 2283225). In a few lines:
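Recombinant human Tie2 kinase activity was read cell-free by fluorescence with electrophoretic mobility shift, 1 hour after dosing. The screen used 25 uM in duplicate, then concentration-response up to 50 uM. Signal loss was scored against DMSO.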

The target in assay [4] is human Phosphatase and Tensin Homolog (PTEN), PTEN (gene 5728) (UniProt P60484). Description: NVS_ENZ_hPTEN: NovaScreen (NVS) Enzymatic Assay for human Phosphatase and Tensin Homolog (PTEN) (AID 2283203). The procedure: NVS_ENZ_hPTEN is a biochemical, single-readout assay that uses extracted gene-proteins in a cell-free assay. Measurements were taken 1 hour after chemical dosing in a 384-well plate.NVS_ENZ_hPTEN is one of one assay component(s) measured or calculated from the NVS_ENZ_hPTEN assay. It is designed to make measurements of enzyme activity, a form of enzyme reporter, as detected with fluorescence intensity signals by Fluorescence and electrophoretic mobility shift technology.Data from the assay component NVS_ENZ_hPTEN was analyzed into 1 assay endpoint. This assay endpoint, NVS_ENZ_hPTEN, was analyzed in the positive analysis fitting direction relative to DMSO as the negative control and baseline of activity. Using a type of enzyme reporter, loss-of-signal activity can be used to understand changes in the enzymatic activity as they relate to the gene PTEN. Furthermore, this assay endpoint can be referred to as a primary readout, because this assay has produced multiple assay endpoints where this one serves a enzymatic activity function. To generalize the intended target to other relatable targets, this assay endpoint is annotated to the phosphatase intended target family, where the subfamily is dual-specific phosphatase. […]

The target in assay [5] is Tyrosine-protein phosphatase non-receptor type 12 (Homo sapiens) (UniProt Q05209). Description: NVS_ENZ_hPTPN12: NovaScreen (NVS) Enzymatic Assay for human Protein Tyrosine Phosphatase Non-receptor Type 12 (PTPN12) (AID 2283204). The procedure, abridged:
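Single-concentration duplicates (25 uM) preceded singleton concentration-response up to 50 uM for chemicals passing threshold. Cell-free recombinant PTPN12 activity was read 1.33 h after dosing via fluorescence after mobility-shift separation; loss of signal versus DMSO.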

In assay [6] the target is Tyrosine-protein phosphatase non-receptor type 13 (Homo sapiens) (UniProt Q12923). Description: NVS_ENZ_hPTPN13: NovaScreen (NVS) Enzymatic Assay for human Protein Tyrosine Phosphatase Non-receptor Type 13 (PTPN13) (AID 2283205). In a few lines:
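Cell-free assay of recombinant human PTPN13 with a fluorescent substrate, product separated by electrophoretic mobility shift and read 0.5 h after dosing. Primary screen at 25 uM in duplicate, then concentration-response up to 50 uM. Loss of signal fitted against DMSO.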

Assay [7] concerns the target Tyrosine-protein phosphatase non-receptor type 14 (Homo sapiens) (UniProt Q15678). In words: NVS_ENZ_hPTPN14: NovaScreen (NVS) Enzymatic Assay for human Protein Tyrosine Phosphatase Non-receptor Type 14 (PTPN14) (AID 2283206). The procedure, abridged:
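Cell-free recombinant human PTPN14 with fluorescent substrate, read 0.5 h after dosing by fluorescence and electrophoretic mobility shift separating substrate from product. Primary screen at 25 uM in duplicate; hits run to 50 uM maximum; loss of signal versus DMSO.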

Assay [8] has as its target human Protein Tyrosine Phosphatase Non-receptor Type 9 (PTPN9), PTPN9 (gene 5780) (UniProt P43378). Description: NVS_ENZ_hPTPN9: NovaScreen (NVS) Enzymatic Assay for human Protein Tyrosine Phosphatase Non-receptor Type 9 (PTPN9) (AID 2283209). The procedure: (§1) NVS_ENZ_hPTPN9 is a biochemical, single-readout assay that uses extracted gene-proteins from SF9 in a cell-free assay. Measurements were taken 1.33 hours after chemical dosing in a 384-well plate.NVS_ENZ_hPTPN9 is one of one assay component(s) measured or calculated from the NVS_ENZ_hPTPN9 assay. It is designed to make measurements of enzyme activity, a form of enzyme reporter, as detected with fluorescence intensity signals by Fluorescence and electrophoretic mobility shift technology.Data from the assay component NVS_ENZ_hPTPN9 was analyzed into 1 assay endpoint. This assay endpoint, NVS_ENZ_hPTPN9, was analyzed in the positive analysis fitting direction relative to DMSO as the negative control and baseline of activity. Using a type of enzyme reporter, loss-of-signal activity can be used to understand changes in the enzymatic activity as they relate to the gene PTPN9. Furthermore, this assay endpoint can be referred to as a primary readout, because this assay has produced multiple assay endpoints where this one serves a enzymatic activity function. To generalize the intended target to other relatable targets, this assay endpoint is annotated to the phosphatase intended target family, where the subfamily is non-receptor tyrosine phosphatase. […]

Assay [9] deals with human Protein Tyrosine Phosphatase Receptor Type F (PTPRF), PTPRF (gene 5792) (UniProt P10586). In words: NVS_ENZ_hPTPRF: NovaScreen (NVS) Enzymatic Assay for human Protein Tyrosine Phosphatase Receptor Type F (PTPRF) (AID 2283213). The procedure, abridged: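 Cell-free fluorescence enzyme assay with recombinant protein and substrate; product separated by electrophoretic mobility shift. Read 1 h after dosing, single 25 uM duplicate screen, then concentration-response up to 50 uM; loss of signal vs DMSO.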

The target in assay [10] is human Protein Tyrosine Phosphatase Receptor Type M (PTPRM), PTPRM (gene 5797) (UniProt P28827). In words: NVS_ENZ_hPTPRM: NovaScreen (NVS) Enzymatic Assay for human Protein Tyrosine Phosphatase Receptor Type M (PTPRM) (AID 2283215). The procedure: as §1, with “NVS_ENZ_hPTPRM” for “NVS_ENZ_hPTPN9”, “gene-proteins” for “gene-proteins from SF9”, “plate.NVS_ENZ_hPTPRM” for “plate.NVS_ENZ_hPTPN9”, “NVS_ENZ_hPTPRM,” for “NVS_ENZ_hPTPN9,”, “PTPRM.” for “PTPN9.”, “receptor” for “non-receptor”

The AC50 is the concentration at which the activity in the assay is half-maximal. In the case of `CC(C)OP(=S)(OC(C)C)SCCNS(=O)(=O)c1ccccc1`, the compound was classed as inactive in [1], in assay [2] and in assay [3]. Further, the half-maximal activity concentration (AC50) in [2] was active: 17.1 µM.

`Cc1cc([N+](=O)[O-])cc([N+](=O)[O-])c1O`: the outcome in assay [4], in [5], in [6], in assay [7], in assay [8] and in assay [9] was inactive. For the same compound, the outcome in assay [10] was inactive.
